Target: human Ghrelin receptor (GSHR) (Homo sapiens, UniProt Q92847)
Experiment: Gq bioSens-All control assay
Conditions: raw signal

The chains behind the UniProt entries cited, without tags or fusion partners.
UniProt Q92847, whole entry: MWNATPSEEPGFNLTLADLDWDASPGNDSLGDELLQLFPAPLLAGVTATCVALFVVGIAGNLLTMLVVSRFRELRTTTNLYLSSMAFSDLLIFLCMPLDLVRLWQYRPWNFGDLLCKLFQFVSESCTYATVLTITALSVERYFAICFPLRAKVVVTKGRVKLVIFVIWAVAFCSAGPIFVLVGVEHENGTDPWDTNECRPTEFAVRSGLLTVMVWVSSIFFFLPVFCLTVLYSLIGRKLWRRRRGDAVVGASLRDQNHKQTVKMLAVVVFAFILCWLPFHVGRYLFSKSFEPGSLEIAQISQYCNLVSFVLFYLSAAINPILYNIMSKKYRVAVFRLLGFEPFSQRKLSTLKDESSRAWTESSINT

Ghrelin
Ghrelin control response (Log[Ghrelin] (M) -4.22186): 1761.95 | Ghrelin control response (Log[Ghrelin] (M) -4.88264): 1706.31 | Ghrelin control response (Log[Ghrelin] (M) -5.54073): 1913.18 | Ghrelin control response (Log[Ghrelin] (M) -6.19385): 1787.26 | Ghrelin control response (Log[Ghrelin] (M) -6.86013): 1793.03 | Ghrelin control response (Log[Ghrelin] (M) -7.52288): 1659.54 | Ghrelin control response (Log[Ghrelin] (M) -8.79589): 1503.17 | Ghrelin control response (Log[Ghrelin] (M) -9.60206): 1023.31 | Ghrelin control response (Log[Ghrelin] (M) -10.3979): 815.27 | Ghrelin control response (Log[Ghrelin] (M) -11.1871): 750.82
